These results are taken from patent publication US6710041B2, “Pyrrolo[2,1-B][3,1] benzothiazepines and their use for the preparation of medicaments with antipsychotic activity” (Sigma-Tau Industrie Farmaceutiche Riunite S.p.A., priority 2003, dated 2004).

By UniProt entry, the sequences of proteins in these tests, tags left out.
UniProt P18901, whole entry: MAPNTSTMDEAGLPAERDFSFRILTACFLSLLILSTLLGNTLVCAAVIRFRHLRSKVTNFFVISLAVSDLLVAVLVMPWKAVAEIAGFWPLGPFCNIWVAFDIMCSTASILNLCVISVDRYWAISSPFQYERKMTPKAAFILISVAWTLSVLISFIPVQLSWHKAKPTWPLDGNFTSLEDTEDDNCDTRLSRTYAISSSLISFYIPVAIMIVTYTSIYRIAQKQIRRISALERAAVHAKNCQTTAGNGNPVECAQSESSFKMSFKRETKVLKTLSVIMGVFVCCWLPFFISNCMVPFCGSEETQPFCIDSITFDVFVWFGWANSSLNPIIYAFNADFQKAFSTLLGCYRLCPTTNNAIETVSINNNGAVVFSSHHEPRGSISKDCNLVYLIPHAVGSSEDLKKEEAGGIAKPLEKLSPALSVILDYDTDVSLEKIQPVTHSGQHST
UniProt P14842, whole entry: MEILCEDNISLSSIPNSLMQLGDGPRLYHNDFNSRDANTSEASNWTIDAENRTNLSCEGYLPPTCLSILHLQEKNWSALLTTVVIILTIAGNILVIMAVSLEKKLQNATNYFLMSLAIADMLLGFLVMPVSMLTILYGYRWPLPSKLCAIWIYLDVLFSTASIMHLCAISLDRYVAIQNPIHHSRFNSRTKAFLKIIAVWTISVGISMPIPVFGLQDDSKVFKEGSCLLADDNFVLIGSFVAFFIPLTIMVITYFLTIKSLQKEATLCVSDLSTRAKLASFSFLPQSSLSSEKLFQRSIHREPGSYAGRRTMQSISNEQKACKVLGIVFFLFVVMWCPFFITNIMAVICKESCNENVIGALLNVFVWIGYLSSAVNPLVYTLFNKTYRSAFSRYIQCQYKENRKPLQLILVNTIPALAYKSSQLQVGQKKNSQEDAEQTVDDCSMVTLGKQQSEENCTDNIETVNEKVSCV
UniProt P19020, whole entry: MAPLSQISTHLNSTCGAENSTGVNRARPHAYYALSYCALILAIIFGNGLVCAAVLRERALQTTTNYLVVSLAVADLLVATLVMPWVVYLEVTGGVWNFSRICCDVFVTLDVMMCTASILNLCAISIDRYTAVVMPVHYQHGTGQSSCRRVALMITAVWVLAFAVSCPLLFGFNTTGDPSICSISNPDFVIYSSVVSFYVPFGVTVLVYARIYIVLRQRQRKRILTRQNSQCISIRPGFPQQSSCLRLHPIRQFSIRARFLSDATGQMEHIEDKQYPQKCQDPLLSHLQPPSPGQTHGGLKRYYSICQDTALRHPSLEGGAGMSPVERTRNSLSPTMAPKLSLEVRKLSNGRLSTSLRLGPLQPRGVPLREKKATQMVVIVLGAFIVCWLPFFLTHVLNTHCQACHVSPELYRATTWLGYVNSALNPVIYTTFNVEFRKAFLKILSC

SMILES strings stand for the structures. Read-outs that look alike come from different tables or passages of the source.

The target of one assay is T1, D1 receptor (Rattus norvegicus, UniProt P18901).
T1 construct: was studied using various different cerebral areas (striate D1 and D2; olfactory tubule D3; prefrontal cortex 5HT2a); from tissue; host or cells: striatum ('striate')
Put plainly: Interaction with D1 receptor, [3H]-SCH 23390 radioligand binding, striate. Conditions: for D1 pKi: Table 3.

In another assay the target is 5HT2a receptor (Rattus norvegicus, UniProt P14842). In words: Interaction with 5HT2a receptor, 3H-ketanserine radioligand binding, prefrontal cortex. Conditions: for 5-HT2a pKi: Table 3.
Another assay has as its target D3 receptor (Rattus norvegicus, UniProt P19020). In words: Interaction with D3 receptor, 3H-7-OH-DPAT radioligand binding, olfactory tubule. As to conditions: for D3 pKi: Table 3; for Ki: read-out: D3 Ki (nM) ± ds, Table 2.
The mark [1] stands for this setting: Table 2, read-out: D1 Ki (nM) ± ds.
[2] abbreviates: Table 2, read-out: 5-HT2a Ki (nM) ± ds.

Regarding `CN1CCN(C2=Cn3cccc3Sc3ccc(Cl)cc32)CC1` [ST1508, 7-chloro-9-(4-methyl-1-piperazinyl)pyrrolo[2,1-b][1,3]benzothiazepine], the Ki (usually the equilibrium dissociation constant of an inhibitor or competing ligand from its target) at D1 receptor (Table 1, mean and standard deviation, read-out: D1 Ki ± ds) is 1.9 ± 0.1 nM; on D1 receptor (setting [1]) it was 1.9 ± 0.1 nM; at 5HT2a receptor (Table 1, mean and standard deviation, read-out: 5-HT2a Ki ± ds) it was 0.34 ± 0.05 nM; at 5HT2a receptor (setting [2]), 0.34 ± 0.05 nM. Besides, the “D1 pKi” value on D1 receptor is recorded as 8.72. On 5HT2a receptor, the “5-HT2a pKi” value was determined as 9.47.

Turning to `CN1CCN(C2=Cn3cccc3Sc3ccccc32)CC1` [ST1899, 9-(4-Methylpiperazin-1-yl) Pyrolo [2,1-b][1,3]benzothiazepine], the Ki on 5HT2a receptor (setting [2]) came out at 0.6 ± 0.1 nM. On 5HT2a receptor, the “5-HT2a pKi” value turned out to be 9.19.

On to `CN1CCN(C2=Cn3cccc3Sc3ccc(F)cc32)CC1` [ST1928, 7-fluoro-9-(4-methyl-1-piperazinyl)pyrrolo[2,1-b][1,3]benzothiazepine], for which, at D3 receptor, the “D3 pKi” value worked out at 8.57. Besides, the Ki amounted to 2.7 ± 0.1 nM at D3 receptor, 7.7 ± 0.58 nM at D1 receptor (setting [1]) and 0.35 ± 0.04 nM at 5HT2a receptor (setting [2]). Further, on D1 receptor, the “D1 pKi” value was 8.11. Moreover, at 5HT2a receptor, the “5-HT2a pKi” value is on record as 9.46.

`Cc1ccc2n1C=C(N1CCN(C)CC1)c1ccccc1S2` [ST2092, 1-Methyl-9-(4-methylpiperazin-1-yl)pyrrolo[2,1-b][1,3]benzothiazepine]: at D3 receptor, the “D3 pKi” value worked out at 7.74 and the inhibition constant (Ki) stood at 18 ± 1 nM. In addition, the Ki at 5HT2a receptor (setting [2]) was 1.1 ± 0.05 nM.
